Literature values, collected in patent US7875460B2, “Method for determining the effectiveness of stabilized chlorine dioxide in a mouth rinse” (priority 2007, dated 2011).

Test system: humans
Conditions: 197 humans, three months, mean chlorite 10.3 mg/day, range 0-39.4 mg/day

## chlorite
  adverse effects by hematologic serum chemistry measurements: failed to show any significant adverse effects
